This is an account of results in paper PMC12799515 (Journal of Orthopaedic Translation, 2025).

Data set [1] concerns inTPCs. The data set is described as follows: Cell viability. The note with it: 1 μM CCCP or 5 μM CsA, 48 h. The class given is cell-based, C57BL/6 J mice. In a few lines: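 Mouse tendon cells (passage 3–4) were seeded in 96-well plates and exposed to test compound at varying concentrations (0, 0.1, 0.5, 1, 5, 10 μM for the inhibitor) for 48 h. They were then incubated with 10% CCK-8 at 37 °C for 1 h, and absorbance was read at 450 nm to calculate viability.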

The subject of data set [2] is inTPCs. The data set is described as follows: Apoptosis. The class given is cell-based, C57BL/6 J mice. As to conditions: 1 μM CCCP or 5 μM CsA.

As for cyclosporin A [CsA], the “cell viability (poisoning)” value in the data set on inTPCs [1] is reported as “did not cause poisoning”. Also, the apoptosis result in the data set on inTPCs [2] is “did not cause poisoning (Fig. 3A and B) or apoptosis”.
